Results taken from patent publication US20240252454A1, “COMPOSITION COMPRISING AN INHIBITOR OF MITOCHONDRIAL TRANSCRIPTION” (LEAD DISCOVERY CENTER GMBH, priority 2021, published 2024).

Experiments:
Test in all cases: SRB assay, IMT combined with inhibitor
Assay type in all cases: cell-based
[1] = system: ASPC1; settings: ASPC1 (pancreas); concentration series of the labelled inhibitor + fixed concentration of IMT (3S)-1-[(2R)-2-[4-(2-chloro-4-fluoro-phenyl)-2-oxo-chromen-7-yl]oxypropanoyl]piperidine-3-carboxylic acid; negative=synergistic, positive=antagonistic
Procedure: (§1) Solforhodamine B assay is carried out as described in Voigt W. (2005) Sulforhodamine B Assay and Chemosensitivity. (Methods in Molecular Medicine™, vol 110. Humana Press. https://doi.org/10.1385/1-59259-869-2:039).
(§2) The determination of changes in cellular biomass was based on the Solforhodamine B assay format, carried out as described in Voigt W. (2005) Sulforhodamine B Assay and Chemosensitivity. (Methods in Molecular Medicine™, vol 110. Humana Press. https://doi.org/10.1385/1-59259-869-2:039).
(§3) All in vitro cell culture experiments were carried out under near physiological glucose concentrations (5 mM) in at least two independent replicates.
(§4) To establish the method described, combinations of (3S)-1-[(2R)-2-[4-(2-chloro-4-fluoro-phenyl)-2-oxo-chromen-7-yl]oxypropanoyl]piperidine-3-carboxylic acid and various PARPi were tested with regard to their effect on the cell growth of 33 tumour cell lines from different tissues, in the SRB and CTG assay format. The assay methods and protocols in cell culture and measurement followed the procedure as described in Example 1). […] This initial study was followed by validation experiments in a matrix format and in the CTG assay, as described for Example 1) (Table 6.)

[2] = system: MDAMB231; settings: MDAMB231 (breast); concentration series of the labelled inhibitor + fixed concentration of IMT (3S)-1-[(2R)-2-[4-(2-chloro-4-fluoro-phenyl)-2-oxo-chromen-7-yl]oxypropanoyl]piperidine-3-carboxylic acid; negative=synergistic, positive=antagonistic
Procedure: as §1, §2, §3, §4

[3] = system: A673; settings: A673 (muscle); concentration series of the labelled inhibitor + fixed concentration of IMT (3S)-1-[(2R)-2-[4-(2-chloro-4-fluoro-phenyl)-2-oxo-chromen-7-yl]oxypropanoyl]piperidine-3-carboxylic acid (Table 3: 40 nM, 120 h); negative=synergistic, positive=antagonistic
Procedure: as §1, §2, §3
(§5) First, 30 different cell lines from 14 different tissue types were tested in the SRB assay format. The cells were examined individually for changes in growth over a period of 120 hours with dilution series of both inhibitors. Untreated cells were used as a negative control group. Subsequently, a dilution series of the respective MAPK signalling pathway SOCs was treated in combination with a fixed concentration of 40 nM (3S)-1-[(2R)-2-[4-(2-chloro-4-fluoro-phenyl)-2-oxo-chromen-7-yl]oxypropanoyl]piperidine-3-carboxylic acid.

[4] = system: PANC1; settings: PANC1 (pancreas); concentration series of the labelled inhibitor + fixed concentration of IMT (3S)-1-[(2R)-2-[4-(2-chloro-4-fluoro-phenyl)-2-oxo-chromen-7-yl]oxypropanoyl]piperidine-3-carboxylic acid (Table 3: 40 nM, 120 h); negative=synergistic, positive=antagonistic
Procedure: as §1, §2, §3, §5

[5] = system: MIAPACA2; settings: MIAPACA2 (pancreas); concentration series of the labelled inhibitor + fixed concentration of IMT (3S)-1-[(2R)-2-[4-(2-chloro-4-fluoro-phenyl)-2-oxo-chromen-7-yl]oxypropanoyl]piperidine-3-carboxylic acid (Table 3: 40 nM, 120 h); negative=synergistic, positive=antagonistic
Procedure: as §1, §2, §3, §5

[6] = system: IMR90; settings: IMR90 (lung); concentration series of the labelled inhibitor + fixed concentration of IMT (3S)-1-[(2R)-2-[4-(2-chloro-4-fluoro-phenyl)-2-oxo-chromen-7-yl]oxypropanoyl]piperidine-3-carboxylic acid (Table 3: 40 nM, 120 h); negative=synergistic, positive=antagonistic
Procedure: as §1, §2, §3, §5

[7] = system: HELA; settings: HELA (cervix); concentration series of the labelled inhibitor + fixed concentration of IMT (3S)-1-[(2R)-2-[4-(2-chloro-4-fluoro-phenyl)-2-oxo-chromen-7-yl]oxypropanoyl]piperidine-3-carboxylic acid (Table 3: 40 nM, 120 h); negative=synergistic, positive=antagonistic
Procedure: as §1, §2, §3, §5

[8] = system: KASUMI-1; settings: KASUMI-1 (hematological); concentration series of the labelled inhibitor + fixed concentration of IMT (3S)-1-[(2R)-2-[4-(2-chloro-4-fluoro-phenyl)-2-oxo-chromen-7-yl]oxypropanoyl]piperidine-3-carboxylic acid (Table 3: 40 nM, 120 h); negative=synergistic, positive=antagonistic
Procedure: as §1, §2, §3, §5

[9] = system: SKMEL28; settings: SKMEL28 (skin); concentration series of the labelled inhibitor + fixed concentration of IMT (3S)-1-[(2R)-2-[4-(2-chloro-4-fluoro-phenyl)-2-oxo-chromen-7-yl]oxypropanoyl]piperidine-3-carboxylic acid (Table 3: 40 nM, 120 h); negative=synergistic, positive=antagonistic
Procedure: as §1, §2, §3, §5

[10] = system: CALU6; settings: CALU6 (lung); concentration series of the labelled inhibitor + fixed concentration of IMT (3S)-1-[(2R)-2-[4-(2-chloro-4-fluoro-phenyl)-2-oxo-chromen-7-yl]oxypropanoyl]piperidine-3-carboxylic acid (Table 3: 40 nM, 120 h); negative=synergistic, positive=antagonistic
Procedure: as §1, §2, §3, §5

[11] = system: LOVO; settings: LOVO (colon); concentration series of the labelled inhibitor + fixed concentration of IMT (3S)-1-[(2R)-2-[4-(2-chloro-4-fluoro-phenyl)-2-oxo-chromen-7-yl]oxypropanoyl]piperidine-3-carboxylic acid (Table 3: 40 nM, 120 h); negative=synergistic, positive=antagonistic
Procedure: as §1, §2, §3, §5

[12] = system: GRANTA-519; settings: GRANTA-519 (hematological); concentration series of the labelled inhibitor + fixed concentration of IMT (3S)-1-[(2R)-2-[4-(2-chloro-4-fluoro-phenyl)-2-oxo-chromen-7-yl]oxypropanoyl]piperidine-3-carboxylic acid (Table 3: 40 nM, 120 h); negative=synergistic, positive=antagonistic
Procedure: as §1, §2, §3, §5

[13] = system: HEPG2; settings: HEPG2 (liver); concentration series of the labelled inhibitor + fixed concentration of IMT (3S)-1-[(2R)-2-[4-(2-chloro-4-fluoro-phenyl)-2-oxo-chromen-7-yl]oxypropanoyl]piperidine-3-carboxylic acid (Table 3: 40 nM, 120 h); negative=synergistic, positive=antagonistic
Procedure: as §1, §2, §3, §5

In the case of `N#CC[C@H](C1CCCC1)n1cc(-c2ncnc3[nH]ccc23)cn1` [Ruxolitinib], the “difference between the calculated combinatorial index (BLISS) and the observed combinatorial effect” value [1] is reported as −0.0054, the “difference between the calculated combinatorial index (BLISS) and the observed combinatorial effect” value [2] is reported as −0.0495 and the “difference between the calculated combinatorial index (BLISS) and the observed combinatorial effect” value [3] is reported as −0.0209. The “difference between the calculated combinatorial index (BLISS) and the observed combinatorial effect” value [4] was −0.0756, the “difference between the calculated combinatorial index (BLISS) and the observed combinatorial effect” value [5] was 0.0502 and the “difference between the calculated combinatorial index (BLISS) and the observed combinatorial effect” value [6] was 0.0463. The “difference between the calculated combinatorial index (BLISS) and the observed combinatorial effect” value [7] was 0.0579, the “difference between the calculated combinatorial index (BLISS) and the observed combinatorial effect” value [8] was 0.0840 and the “difference between the calculated combinatorial index (BLISS) and the observed combinatorial effect” value [9] was −0.0505. For the same molecule, the “difference between the calculated combinatorial index (BLISS) and the observed combinatorial effect” value [10] was −0.0319, the “difference between the calculated combinatorial index (BLISS) and the observed combinatorial effect” value [11] was 0.0697 and the “difference between the calculated combinatorial index (BLISS) and the observed combinatorial effect” value [12] was −0.0280. For the same molecule, the “difference between the calculated combinatorial index (BLISS) and the observed combinatorial effect” value [13] was 0.0064.
